{
  "source": "patent US6613322B2",
  "about": "“Method for treating a subject suffering from conditions associated with an extracellular zinc sphingomyelinase” (The Trustees of Columbia University in the City of New York, priority 1997, dated 2003)",
  "system": "S-SMase secretion by HUVECs",
  "experiment": "Cytokine regulation of S-SMase secretion by HUVECs (SMase activity in conditioned media)",
  "type": "cell-based, human",
  "conditions": "18 h, interferon-β 1000 units/ml, IL-4 10 ng/ml",
  "experimental": "FIGS. 23A-B. Cytokine regulation of S- and L-SMase of HUVECs. HUVECs were incubated for 18 h in DMEM, 0.2% BSA alone or containing human recombinant interleukin-1β (5 ng/ml) interferon-γ (1000 units/ml) interferon-β (1000 units/ml), and interleukin-4 (10 ng/ml) for 18 h. Conditioned media (FIG. 23A) and cell homogenates (FIG. 23B) from these cells were then assayed for SMase activity in the presence or absence of 0.1 mM ZnCl2, respectively.\nCells—Primary cultures of HUVEC were obtained from fresh umbilical cords and maintained in cell culture as previously described (31). Human coronary artery endothelial cells from a donor were purchased from Clonetics Corp. (San Diego, Calif.; cat. # CC-2585, Strain #3033). The cells were grown in endothelial basal media (EBM) (Clonetics) supplemented with 10% HI-FES; 10 μg endothelial cell growth supplement/ml (Sigma; cat. # E0760) and 50 μg gentamicin/ml. Primary cultures of bovine aortic endothelial, cells were established and subcultured as described previously (32). […]",
  "data": [
    {"substance": "interferon-β: human recombinant interferon-β", "values": [
      {"measurement": "accumulation of S-SMase in conditioned media (qualitative)", "result": "substantially increased"}
    ]}
  ]
}
